Results reported in PMC6994307 (Current Therapeutic Research, Clinical and Experimental, 2019).

Amino acid sequences for entries named in this document (tags omitted).
UniProt P21554, whole entry: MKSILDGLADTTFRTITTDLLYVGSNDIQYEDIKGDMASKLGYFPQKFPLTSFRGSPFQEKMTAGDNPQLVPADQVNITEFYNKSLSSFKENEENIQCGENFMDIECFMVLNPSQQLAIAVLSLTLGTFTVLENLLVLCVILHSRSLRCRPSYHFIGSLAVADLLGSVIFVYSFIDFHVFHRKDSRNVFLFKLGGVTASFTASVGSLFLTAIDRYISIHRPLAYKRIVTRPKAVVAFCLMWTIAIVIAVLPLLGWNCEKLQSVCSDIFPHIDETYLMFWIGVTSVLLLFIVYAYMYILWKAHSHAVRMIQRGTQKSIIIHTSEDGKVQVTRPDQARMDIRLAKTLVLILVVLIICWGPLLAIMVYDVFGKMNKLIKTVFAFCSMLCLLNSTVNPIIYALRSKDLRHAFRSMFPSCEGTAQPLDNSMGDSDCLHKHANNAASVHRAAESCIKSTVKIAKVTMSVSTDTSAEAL

Target: human CB1 receptor (Homo sapiens, UniProt P21554)
Type: binding

For `O=C(Nc1ccc(Cl)cc1)Nc1cccc(-c2cccc(N3CCCC3)n2)c1` [PSNCBAM-1, 1-(4-Chlorophenyl)-3-{3-[6-(pyrrolidin-1-yl)pyridin-2-yl]phenyl} urea], the Kb was 55 nM.
